From PMC6269162

Biological target: Rabbit actin (rabbit) (UniProt P68135)
Assay: co-sedimentation; 10 μM actin mixed with increasing concentrations of Tpm; pellet and supernatant on SDS-PAGE, densitometry, Hill equation; K50% = free Tpm for half saturation of actin, 'not a true affinity measurement'; 25 °C (methods) or 20 °C (results); average of 3 independent experiments

Tpm^Cdc8.E129K, Nt-acetylated (from UniProt Q02088 1-161) (natural protein)
K50%: 1.65 µM

Tpm^Cdc8, wild type, Nt-acetylated (from UniProt Q02088 1-161) (natural protein)
K50%: 0.62 µM

Tpm^Cdc8, wild type, non-acetylated (from UniProt Q02088 1-161) (natural protein)
K50%: 2.54 µM

Tpm^Cdc8.E129K, non-acetylated (from UniProt Q02088 1-161) (natural protein)
K50%: 4.69 µM
